According to PubChem BioAssay AID540253 (National Center for Advancing Translational Sciences (NCATS), 2011):
The entries are a selection whose mix differs from that of the whole data set. Results filed as inconclusive are left out. Active and inactive are the calls of the source. The call rests on the fitted dose curve.

Biological target: Snurportin-1 (Homo sapiens) + GTP-binding nuclear protein Ran (Homo sapiens) + Importin subunit beta-1 (Homo sapiens) (UniProt O95149+P62826+Q14974)
Test: qHTS Assay for Inhibitors of RanGTP induced Rango (Ran-regulated importin-beta cargo) - Importin beta complex dissociation; further: % of control where 0% means no effect; nearly all actives have a fitted effect of over 45% in size
Details: Biochemical FRET Rango-importin beta; at 46.1 µM (top of the series)

| Structure (SMILES) | activity change, negative = inhibition |
| --- | --- |
| COc1ccc(OP(C)(=O)Nc2ccc(Br)cc2)cc1 (stereo not given) | inactive: 7.71% |
| O=[N+]([O-])c1cccc2n[nH]nc12 | inactive: 0.559% |
| CC(=O)N1C2C3N(C(C)=O)C1C1N(C(C)=O)C(C(N1C(C)=O)N3C(C)=O)N2C(C)=O | inactive: -3.56% |
| COc1ccccc1OP(C)(=O)Nc1c(C)n(C)n(-c2ccccc2)c1=O (stereo not given) | inactive: -18.5% |
| O=C(OCCCN1CCCC1)C(O)(c1ccccc1)C1CCCCC1 (stereo not given) | inactive: 6.09% |
| Cc1ccc(NP(=O)(Oc2ccccc2)Oc2ccccc2)nc1 | inactive: 14.6% |
| CP(=O)(Oc1ccccc1)N1CCOC1=O (stereo not given) | inactive: 0.351% |
| CCc1ccc(OP(C)(=O)Nc2cccnc2)cc1 (stereo not given) | inactive: -1.9% |
| CCc1nc2c(n1)c1c(non1O)c1c2no[n+]1[O-] | inactive: -3.66% |
| O=[N+]([O-])c1cc([N+](=O)[O-])c(CCNc2ccccc2)c([N+](=O)[O-])c1 | inactive: -6.24% |
| COc1ccccc1OP(C)(=O)Nc1ccccc1Br (stereo not given) | inactive: 2.66% |
| CC(C)(C)c1ccc(OP(C)(=O)O)cc1 | inactive: -6.9% |
| Nc1ccc([As](=O)(O)c2ccc(N)cc2)cc1 | inactive: 0.728% |
| C[N+]1=C2C=CC=CC=C2SC12C([N+](=O)[O-])=CC([N+](=O)[O-])=C[C-]2[N+](=O)[O-] (stereo not given) | inactive: 13.5% |
| CCN(/C(=N/P(=O)(N1CCOCC1)N1CCOCC1)N1CCOCC1)c1ccc(OC)cc1 | inactive: -0.558% |
| CP(=O)(Nc1ccc(Cl)cc1)Oc1ccc(F)cc1 (stereo not given) | inactive: -16.6% |
| CN(C)C(=O)c1c([N+](=O)[O-])cc([N+](=O)[O-])cc1[N+](=O)[O-] | inactive: -14% |
| CC(C)=N/N=C(\N)N[N+](=O)[O-] | inactive: 9.39% |
| CN(C)C(=O)OCCc1n(C)cc[n+]1C | inactive: -8.84% |
| CC1CCN(C(=O)Oc2c(Cl)cc(Cl)c3cccnc23)CC1 | inactive: -5.33% |
| NC(=O)c1cc([N+](=O)[O-])cc([N+](=O)[O-])c1N | inactive: 25% |
| CN(C(=O)Cc1ccc(Cl)c(Cl)c1)[C@H]1CCCC[C@H]1N1CCCC1 | inactive: 9.53% |
| COc1ccccc1OP(C)(=O)Nc1ccc(Br)cc1 (stereo not given) | inactive: 7.03% |
| Cc1ccc(N/C(=N/P(=O)(N2CCOCC2)N2CCOCC2)N2CCOCC2)cc1 | inactive: 1.92% |
| COc1ccccc1OP(=O)(Nc1ccc(C)cn1)Oc1ccccc1OC | inactive: 7.37% |
| COc1ccc(OP(C)(=O)Nc2ccccn2)cc1 (stereo not given) | inactive: 20.9% |
| Cc1ccc(OP(=O)(Nc2nccs2)Oc2ccc(C)cc2)cc1 | inactive: 12.1% |
| CN1CCCC(OC(=O)C(c2ccccc2)c2ccccc2)C1 (stereo not given) | inactive: -1.35% |

| Structure (SMILES) | activity change, negative = inhibition |
| --- | --- |
| Clc1ccc(Cl)c(NC2=NCC(CBr)S2)c1 (stereo not given) | inactive: -7.95% |
| CN(C)CCOC(=O)C(O)(c1ccccc1)C1CCCC1 (stereo not given) | inactive: -19.2% |
| Cc1c(NP(C)(=O)Oc2ccc(C(C)C)cc2)c(=O)n(-c2ccccc2)n1C (stereo not given) | inactive: 14% |
| Nc1cc(N)c2nonc2c1[N+](=O)[O-] | inactive: -4.81% |
| CC(C)CC(=O)NC(Sc1ccc(Cl)cc1)C(Cl)(Cl)Cl (stereo not given) | inactive: 3.63% |
| O=[N+]([O-])c1cc([N+](=O)[O-])c(Nc2ccccn2)c([N+](=O)[O-])c1 | inactive: 0.499% |
| Oc1ccccc1CNc1ccccn1 | inactive: 0.382% |
| O=C(NC(Sc1ccncn1)C(Cl)(Cl)Cl)c1ccccc1 (stereo not given) | inactive: 7.91% |
| CP(=O)(Nc1ccccn1)Oc1ccccc1 (stereo not given) | inactive: -9.8% |
| COc1ccccc1OP(C)(=O)Nc1ccc(C)cc1C (stereo not given) | inactive: -3.23% |
| CCc1ccc(OP(C)(=O)O)cc1 | inactive: 7.77% |
| CC(=O)Nc1ccc([As](=O)(O)O)cc1 | inactive: 0.87% |
| O=C(O)c1ccccc1[As](=O)(O)O | inactive: 9.52% |
| CCCC1OP(N)(=O)OCC1CC (stereo not given) | inactive: -1.74% |
| O=P(Nc1nc2ccc(Cl)cc2s1)(c1ccccc1)c1ccccc1 | inactive: 2.64% |
| Cc1cc(C)cc(OP(C)(=O)Nc2cccc(C(F)(F)F)c2)c1 (stereo not given) | inactive: -0.32% |
| Cc1cc(SC(NC(=O)c2ccc(F)cc2)C(Cl)(Cl)Cl)ncn1 (stereo not given) | inactive: -3.66% |
| CCOP(=O)(Nc1ccccc1)OCC | inactive: -1.27% |
| COc1ccccc1OP(C)(=O)Nc1ccc(C)c(C)c1 (stereo not given) | inactive: 1.64% |
| Cc1ccc(NP(=O)(Oc2ccccc2F)Oc2ccccc2F)nc1 | inactive: 3.75% |
| CN(C(=O)Cc1ccc(Cl)c(Cl)c1)[C@H]1CCCC[C@@H]1N1CCCC1 | inactive: 0.25% |
| COc1ccc(OP(C)(=O)Nc2ccccc2Br)cc1 (stereo not given) | inactive: -12% |
| CCN(N=Nc1nonc1N)c1nonc1N | inactive: 25% |
| Nc1cccc2ccc([As](=O)(O)O)cc12 | inactive: -12.2% |
| CP(=O)(Nc1ccc(Cl)cc1Cl)Oc1ccccc1 (stereo not given) | inactive: -1.16% |
| CCCCCCCCCCCCCCCC1C[N+](C)(C)CCOP(C)(=O)O1 (stereo not given) | inactive: 1.5% |
| CP(=O)(OCCOc1ccccc1)OCCOc1ccccc1 | inactive: 8.13% |
